Laboratory results taken from ChEMBL document CHEMBL4376804, “Review of Transient Receptor Potential Canonical (TRPC5) Channel Modulators and Diseases” (J Med Chem, 2019).

Sequences of proteins named here, by UniProt entry; tags and fusion partners are left off. A change or cut given only in a name is not applied to a line headed by its entry.
UniProt P48995: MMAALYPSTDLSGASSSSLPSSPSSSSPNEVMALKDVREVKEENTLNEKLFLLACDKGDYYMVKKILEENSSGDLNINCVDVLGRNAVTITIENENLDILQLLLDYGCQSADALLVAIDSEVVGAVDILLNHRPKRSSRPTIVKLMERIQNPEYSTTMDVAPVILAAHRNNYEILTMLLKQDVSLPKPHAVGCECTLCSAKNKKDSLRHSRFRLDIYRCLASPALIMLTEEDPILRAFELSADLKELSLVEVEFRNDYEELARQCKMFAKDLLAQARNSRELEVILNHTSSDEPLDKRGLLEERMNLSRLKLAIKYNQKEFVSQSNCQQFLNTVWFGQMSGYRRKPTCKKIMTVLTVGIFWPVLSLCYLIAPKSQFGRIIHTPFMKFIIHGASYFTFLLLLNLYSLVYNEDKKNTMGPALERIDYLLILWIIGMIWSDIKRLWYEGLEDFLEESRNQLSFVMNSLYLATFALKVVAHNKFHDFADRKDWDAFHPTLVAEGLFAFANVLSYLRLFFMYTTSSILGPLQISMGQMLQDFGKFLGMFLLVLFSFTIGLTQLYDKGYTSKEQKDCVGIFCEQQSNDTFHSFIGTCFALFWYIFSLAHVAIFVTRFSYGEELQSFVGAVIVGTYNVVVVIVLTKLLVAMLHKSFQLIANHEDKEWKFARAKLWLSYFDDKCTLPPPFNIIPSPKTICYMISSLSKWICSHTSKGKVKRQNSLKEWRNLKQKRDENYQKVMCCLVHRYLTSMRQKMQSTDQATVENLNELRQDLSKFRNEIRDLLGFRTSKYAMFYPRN

Assays:
Settings in all cases: HEK293, 5 uM
[1] = target: T1, Short transient receptor potential channel 4 (Homo sapiens) (UniProt Q9UBN4)
T1 sequence (whole entry): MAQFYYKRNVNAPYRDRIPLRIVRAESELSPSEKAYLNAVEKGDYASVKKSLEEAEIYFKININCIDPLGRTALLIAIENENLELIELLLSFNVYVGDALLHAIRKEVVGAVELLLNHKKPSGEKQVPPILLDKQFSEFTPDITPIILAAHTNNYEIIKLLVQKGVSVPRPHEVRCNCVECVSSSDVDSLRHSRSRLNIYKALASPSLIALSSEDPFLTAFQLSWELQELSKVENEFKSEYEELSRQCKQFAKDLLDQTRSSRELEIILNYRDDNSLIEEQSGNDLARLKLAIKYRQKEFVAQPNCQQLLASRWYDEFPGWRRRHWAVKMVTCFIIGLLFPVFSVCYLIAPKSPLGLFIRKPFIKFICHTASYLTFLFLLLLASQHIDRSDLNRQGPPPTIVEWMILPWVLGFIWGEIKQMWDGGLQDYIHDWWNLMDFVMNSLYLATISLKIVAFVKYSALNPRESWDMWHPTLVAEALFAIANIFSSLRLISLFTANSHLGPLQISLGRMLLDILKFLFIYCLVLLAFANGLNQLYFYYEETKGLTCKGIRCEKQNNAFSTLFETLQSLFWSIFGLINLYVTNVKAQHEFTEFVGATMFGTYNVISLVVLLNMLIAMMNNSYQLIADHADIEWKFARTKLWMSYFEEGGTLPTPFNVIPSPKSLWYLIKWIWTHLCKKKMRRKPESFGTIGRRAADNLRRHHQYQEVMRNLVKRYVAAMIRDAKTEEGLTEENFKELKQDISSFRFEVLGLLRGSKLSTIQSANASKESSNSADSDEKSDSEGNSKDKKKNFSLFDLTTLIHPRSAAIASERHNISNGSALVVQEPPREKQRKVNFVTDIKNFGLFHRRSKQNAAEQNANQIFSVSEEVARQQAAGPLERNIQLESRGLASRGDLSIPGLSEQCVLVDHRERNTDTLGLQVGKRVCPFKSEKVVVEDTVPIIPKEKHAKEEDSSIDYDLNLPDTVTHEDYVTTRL

[2] = target: TRPC1/TRPC5 (Homo sapiens) (UniProt Q9UL62+P48995)
[3] = target: T2, Short transient receptor potential channel 5 (Homo sapiens) (UniProt Q9UL62)
T2 sequence (whole entry): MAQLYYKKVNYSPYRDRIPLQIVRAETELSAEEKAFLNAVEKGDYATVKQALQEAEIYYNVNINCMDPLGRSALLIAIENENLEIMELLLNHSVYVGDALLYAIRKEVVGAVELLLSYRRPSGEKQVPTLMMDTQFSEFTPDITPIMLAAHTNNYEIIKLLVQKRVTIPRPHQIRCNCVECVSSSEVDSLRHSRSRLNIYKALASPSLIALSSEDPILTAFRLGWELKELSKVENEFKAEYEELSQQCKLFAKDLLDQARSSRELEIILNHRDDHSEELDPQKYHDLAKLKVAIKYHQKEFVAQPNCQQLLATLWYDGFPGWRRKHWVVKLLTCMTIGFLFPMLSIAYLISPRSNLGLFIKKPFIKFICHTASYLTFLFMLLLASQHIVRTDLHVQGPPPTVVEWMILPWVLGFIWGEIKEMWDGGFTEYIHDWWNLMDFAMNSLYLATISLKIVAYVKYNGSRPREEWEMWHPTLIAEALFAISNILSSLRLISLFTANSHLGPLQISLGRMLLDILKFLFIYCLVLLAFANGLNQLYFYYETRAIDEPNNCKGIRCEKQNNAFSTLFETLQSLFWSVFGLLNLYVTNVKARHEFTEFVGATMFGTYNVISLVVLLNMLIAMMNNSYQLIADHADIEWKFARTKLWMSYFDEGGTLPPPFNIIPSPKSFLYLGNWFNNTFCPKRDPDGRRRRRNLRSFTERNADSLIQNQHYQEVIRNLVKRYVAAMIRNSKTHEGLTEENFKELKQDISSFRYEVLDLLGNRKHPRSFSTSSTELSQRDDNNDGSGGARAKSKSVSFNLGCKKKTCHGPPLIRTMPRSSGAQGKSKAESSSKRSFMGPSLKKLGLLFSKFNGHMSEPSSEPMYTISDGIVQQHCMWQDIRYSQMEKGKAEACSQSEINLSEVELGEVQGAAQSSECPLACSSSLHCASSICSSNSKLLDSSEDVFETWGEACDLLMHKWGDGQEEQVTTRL

inhibition [1]: 65%
inhibition [2]: 65%
inhibition [3]: 65%
SMILES: O=c1c(O)c(-c2ccccc2Br)oc2cc(O)cc(O)c12
